How the values were obtained:
[1] = biological target: T1, human glucagon receptor (hGLUC R) (Homo sapiens, UniProt P47871); experiment: cAMP response (HTRF) of HEK-293 cells stably expressing human glucagon receptor; format: cell-based
T1 construct: expressed in transfected cells; host or cells: HEK-293

By UniProt entry, the sequences of proteins in these tests, tags left out. Residues count along the entry.
UniProt P47871, 26-477: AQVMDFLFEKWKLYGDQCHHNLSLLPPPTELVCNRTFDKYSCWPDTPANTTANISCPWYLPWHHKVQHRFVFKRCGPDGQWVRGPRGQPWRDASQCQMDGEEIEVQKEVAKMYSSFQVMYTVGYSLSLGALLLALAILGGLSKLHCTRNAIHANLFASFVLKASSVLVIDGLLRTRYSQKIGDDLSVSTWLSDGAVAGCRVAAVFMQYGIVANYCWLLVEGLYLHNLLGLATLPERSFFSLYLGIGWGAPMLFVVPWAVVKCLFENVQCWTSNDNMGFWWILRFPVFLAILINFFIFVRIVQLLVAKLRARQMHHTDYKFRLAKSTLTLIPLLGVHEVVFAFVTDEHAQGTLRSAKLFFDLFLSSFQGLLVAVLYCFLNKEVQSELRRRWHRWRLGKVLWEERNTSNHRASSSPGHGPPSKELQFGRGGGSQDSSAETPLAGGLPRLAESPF
UniProt P43220, 24-463: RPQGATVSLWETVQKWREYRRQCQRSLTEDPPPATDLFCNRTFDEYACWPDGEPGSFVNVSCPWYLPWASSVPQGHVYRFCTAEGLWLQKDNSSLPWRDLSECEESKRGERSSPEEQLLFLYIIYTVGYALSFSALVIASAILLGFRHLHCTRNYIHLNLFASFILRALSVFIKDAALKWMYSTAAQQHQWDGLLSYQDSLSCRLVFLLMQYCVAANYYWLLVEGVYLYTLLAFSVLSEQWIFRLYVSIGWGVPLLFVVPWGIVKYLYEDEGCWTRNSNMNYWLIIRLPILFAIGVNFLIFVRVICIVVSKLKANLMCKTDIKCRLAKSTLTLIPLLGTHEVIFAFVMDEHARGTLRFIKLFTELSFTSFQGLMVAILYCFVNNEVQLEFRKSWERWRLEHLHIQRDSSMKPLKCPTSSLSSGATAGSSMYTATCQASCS

[2] = biological target: T2, human GLP-1 receptor (hGLP-1 R) (Homo sapiens, UniProt P43220); experiment: cAMP response (HTRF) of HEK-293 cells stably expressing human GLP-1 receptor; format: cell-based
T2 construct: expressed in transfected cells; host or cells: HEK-293

CCCC[C@H](NC(=O)[C@H](CCC(N)=O)NC(=O)[C@H](CCCCN)NC(=O)[C@H](CO)NC(=O)[C@H](CC(C)C)NC(=O)[C@H](CC(=O)O)NC(=O)[C@H](CO)NC(=O)C(C)(C)NC(=O)[C@H](Cc1ccccc1)NC(=O)[C@@H](NC(=O)CNC(=O)[C@H](CCC(N)=O)NC(=O)[C@H](CO)NC(=O)[C@@H](N)Cc1cscn1)[C@@H](C)O)C(=O)N[C@@H](CCC(=O)O)C(=O)N[C@@H](CO)C(=O)N[C@@H](CCCNC(=N)N)C(=O)N[C@@H](CCCNC(=N)N)C(=O)N[C@@H](C)C(=O)N[C@@H](CCC(N)=O)C(=O)N[C@@H](CC(=O)O)C(=O)N[C@@H](Cc1ccccc1)C(=O)N[C@H](C(=O)N[C@@H](CCC(=O)O)C(=O)N[C@@H](Cc1c[nH]c2ccccc12)C(=O)N[C@@H](CC(C)C)C(=O)N[C@@H](CC(C)C)C(=O)N[C@@H](C)C(=O)N[C@H](C(=O)NCC(=O)N1CCC[C@H]1C(=O)N[C@@H](CCC(=O)O)C(=O)N[C@@H](CO)C(=O)NCC(=O)N[C@@H](C)C(=O)N1CCC[C@H]1C(=O)N1CCC[C@H]1C(=O)N1CCC[C@H]1C(=O)N[C@@H](CO)C(=O)N[C@@H](CSCCS(=O)(=O)CCN1CCN(CC(=O)O)CCN(CC(=O)O)CCN(CC(=O)O)CC1)C(N)=O)[C@@H](C)O)[C@@H](C)CC [compound 13]
EC50 [1]: 0.0048 nM
EC50 [2]: 143 nM

CC[C@H](C)[C@H](NC(=O)[C@H](Cc1ccccc1)NC(=O)[C@H](CCC(=O)O)NC(=O)[C@H](CCC(N)=O)NC(=O)[C@H](C)NC(=O)[C@H](CCCNC(=N)N)NC(=O)[C@H](CCCNC(=N)N)NC(=O)[C@H](CO)NC(=O)[C@H](CCC(=O)O)NC(=O)[C@H](CSCCS(=O)(=O)CCN1CCN(CC(=O)O)CCN(CC(=O)O)CCN(CC(=O)O)CC1)NC(=O)[C@H](CCC(N)=O)NC(=O)[C@H](CCCCN)NC(=O)[C@H](CO)NC(=O)[C@H](Cc1ccc(O)cc1)NC(=O)[C@H](CC(=O)O)NC(=O)[C@H](CO)NC(=O)[C@@H](NC(=O)[C@H](Cc1ccccc1)NC(=O)[C@@H](NC(=O)CNC(=O)[C@H](CCC(N)=O)NC(=O)[C@H](CO)NC(=O)[C@@H](N)Cc1cscn1)[C@@H](C)O)[C@@H](C)O)C(=O)N[C@@H](CCC(=O)O)C(=O)N[C@@H](Cc1c[nH]c2ccccc12)C(=O)N[C@@H](CC(C)C)C(=O)N[C@@H](CC(C)C)C(=O)N[C@@H](C)C(=O)NCC(=O)NCC(=O)N1CCC[C@H]1C(=O)N[C@@H](CCC(=O)O)C(=O)N[C@@H](CO)C(=O)NCC(=O)N[C@@H](C)C(=O)N1CCC[C@H]1C(=O)N1CCC[C@H]1C(=O)N1CCC[C@H]1C(=O)N[C@@H](CO)C(N)=O [compound 39]
EC50 [1]: 0.0266 nM
EC50 [2]: 14.1 nM

CC[C@H](C)[C@H](NC(=O)[C@H](Cc1ccccc1)NC(=O)[C@H](CCC(=O)O)NC(=O)[C@H](CCC(N)=O)NC(=O)[C@H](C)NC(=O)[C@H](CCCNC(=N)N)NC(=O)[C@H](CSCCS(=O)(=O)CCN1CCN(CC(=O)O)CCN(CC(=O)O)CCN(CC(=O)O)CC1)NC(=O)[C@H](CO)NC(=O)[C@H](CCC(=O)O)NC(=O)[C@H](CC(C)C)NC(=O)[C@H](CCC(N)=O)NC(=O)[C@H](CCCCN)NC(=O)[C@H](CO)NC(=O)[C@H](Cc1ccc(O)cc1)NC(=O)[C@H](CC(=O)O)NC(=O)[C@H](CO)NC(=O)[C@@H](NC(=O)[C@H](Cc1ccccc1)NC(=O)[C@@H](NC(=O)CNC(=O)[C@H](CCC(N)=O)NC(=O)[C@H](CO)NC(=O)[C@@H](N)Cc1cscn1)[C@@H](C)O)[C@@H](C)O)C(=O)N[C@@H](CCC(=O)O)C(=O)N[C@@H](Cc1c[nH]c2ccccc12)C(=O)N[C@@H](CC(C)C)C(=O)N[C@@H](CC(C)C)C(=O)N[C@@H](C)C(=O)NCC(=O)NCC(=O)N1CCC[C@H]1C(=O)N[C@@H](CCC(=O)O)C(=O)N[C@@H](CO)C(=O)NCC(=O)N[C@@H](C)C(=O)N1CCC[C@H]1C(=O)N1CCC[C@H]1C(=O)N1CCC[C@H]1C(=O)N[C@@H](CO)C(N)=O [compound 41]
EC50 [1]: 0.0026 nM
EC50 [2]: 4.06 nM

— patent US11046743B2 (Antaros Medical AB, priority 2015, dated 2021)
